Target: PLK4 (Homo sapiens, UniProt O00444)
Assay: Activity (IC50) of the Table 1 compounds as PLK4 inhibitors
Format: biochemical
Conditions: read-out: Activity; Table 1, IC50 class

Sequences of proteins named here, by UniProt entry; tags and fusion partners are left off.
UniProt O00444, whole entry: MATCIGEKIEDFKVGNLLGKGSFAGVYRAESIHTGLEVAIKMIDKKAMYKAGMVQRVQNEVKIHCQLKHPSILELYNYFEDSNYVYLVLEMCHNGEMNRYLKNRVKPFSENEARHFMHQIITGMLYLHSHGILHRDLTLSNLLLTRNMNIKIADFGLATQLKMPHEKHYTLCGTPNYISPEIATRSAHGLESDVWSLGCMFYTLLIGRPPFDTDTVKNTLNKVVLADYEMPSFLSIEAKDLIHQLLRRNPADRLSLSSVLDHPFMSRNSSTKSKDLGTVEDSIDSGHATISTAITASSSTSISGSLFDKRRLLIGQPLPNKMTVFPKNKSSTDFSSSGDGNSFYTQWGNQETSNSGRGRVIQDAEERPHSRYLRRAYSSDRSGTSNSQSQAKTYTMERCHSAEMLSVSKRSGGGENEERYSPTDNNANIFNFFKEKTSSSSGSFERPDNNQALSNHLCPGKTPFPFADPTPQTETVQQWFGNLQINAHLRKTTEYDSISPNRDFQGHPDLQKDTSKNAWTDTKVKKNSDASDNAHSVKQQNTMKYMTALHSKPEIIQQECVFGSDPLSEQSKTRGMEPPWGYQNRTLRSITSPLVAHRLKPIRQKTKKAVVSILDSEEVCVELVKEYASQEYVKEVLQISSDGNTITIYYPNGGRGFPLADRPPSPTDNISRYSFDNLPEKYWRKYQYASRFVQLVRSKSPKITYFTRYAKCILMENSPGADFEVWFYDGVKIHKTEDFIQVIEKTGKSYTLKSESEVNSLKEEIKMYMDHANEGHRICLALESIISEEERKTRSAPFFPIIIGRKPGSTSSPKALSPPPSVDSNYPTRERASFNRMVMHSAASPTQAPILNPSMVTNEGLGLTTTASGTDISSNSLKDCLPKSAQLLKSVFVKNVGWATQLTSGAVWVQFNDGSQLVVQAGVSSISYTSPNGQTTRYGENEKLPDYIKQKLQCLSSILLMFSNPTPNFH

Row | IC50 | SMILES
1 | < 100 nM | COc1c(Nc2cc(C)[nH]n2)nc(Sc2ccc(S(=O)(=O)C(F)c3c(F)c(F)cc(F)c3F)cc2F)nc1N1CCN(CCN(C)C)CC1 (centres unmarked)
2 | < 100 nM | COc1c(Nc2cc(C)[nH]n2)nc(Sc2ccc(S(=O)(=O)C(C)(C)c3c(F)c(F)cc(F)c3F)cc2F)nc1N1CCOCC1
3 | < 100 nM | COc1c(Nc2cc(C)[nH]n2)nc(Sc2ccc(S(=O)(=O)C(C)(C)c3c(F)c(F)cc(F)c3F)cc2F)nc1N1CCC(O)CC1
4 | < 100 nM | COc1c(Nc2cc(C)[nH]n2)nc(Sc2ccc(S(=O)(=O)C(C)(C)c3c(F)c(F)cc(F)c3F)cc2F)nc1N1CCC(OC)CC1
5 | < 100 nM | COc1c(Nc2cc(C)[nH]n2)nc(Sc2ccc(S(=O)(=O)C(C)(C)c3c(F)c(F)cc(F)c3F)cc2F)nc1N1CCN(CCN(C)C)CC1
6 | < 100 nM | COc1c(Nc2cc(C)[nH]n2)nc(Sc2ccc(S(=O)(=O)C(C)(C)c3c(F)c(F)cc(F)c3F)cc2F)nc1N1CCC(O)C1 (centres unmarked)
7 | < 100 nM | COc1c(Nc2cc(C)[nH]n2)nc(Sc2ccc(S(=O)(=O)C(C)(C)c3c(F)c(F)cc(F)c3F)cc2F)nc1N1CCC(OC(C)=O)C1 (centres unmarked)
8 | < 100 nM | COc1c(Nc2cc(C)[nH]n2)nc(Sc2ccc(S(=O)(=O)C(C)(C)c3c(F)c(F)cc(F)c3F)cc2F)nc1N1CCC(C(=O)N(C)C)CC1
9 | < 100 nM | COc1c(Nc2cc(C)[nH]n2)nc(Sc2ccc(S(=O)(=O)C(C)(C)c3c(F)c(F)cc(F)c3F)cc2F)nc1N1CCC(CCN(C)C)CC1
10 | < 100 nM | COc1c(Nc2cc(C)[nH]n2)nc(Sc2ccc(S(=O)(=O)C(F)c3c(F)c(F)cc(F)c3F)cc2F)nc1N1CCOCC1 (centres unmarked)
11 | < 100 nM | COc1c(Nc2cc(C)[nH]n2)nc(Sc2ccc(S(=O)(=O)C(C)(C)c3c(F)c(F)cc(F)c3F)cc2F)nc1N1CCC(C(N)=O)CC1
